Laboratory results: patent US12394803B2, “Production method of catalyst, catalyst, production method of composition, composition, electrode, manufacturing method of electrode, fuel cell, metal-air battery” (Azul Energy Inc., priority 2019, dated 2025)

Dissolution in DMSO (solution transparent and blue) (0.1 g/L in DMSO, FIG. 3): dissolved in DMSO | Dissolution in THF (crystal structures seen by SEM) (THF, catalyst of Comparative Example 1, FIG. 8): not dissolved in THF
Substance: Iron tetraphenylporphine [FeTPP]
